Assay results published in PMC12136037, “Type II kinase inhibitors that target Parkinson’s disease–associated LRRK2” (Science Advances, 2025).

Chains of the proteins cited; added tags and fusions are not shown. Residues count along the entry.
UniProt Q8TDX7, whole entry: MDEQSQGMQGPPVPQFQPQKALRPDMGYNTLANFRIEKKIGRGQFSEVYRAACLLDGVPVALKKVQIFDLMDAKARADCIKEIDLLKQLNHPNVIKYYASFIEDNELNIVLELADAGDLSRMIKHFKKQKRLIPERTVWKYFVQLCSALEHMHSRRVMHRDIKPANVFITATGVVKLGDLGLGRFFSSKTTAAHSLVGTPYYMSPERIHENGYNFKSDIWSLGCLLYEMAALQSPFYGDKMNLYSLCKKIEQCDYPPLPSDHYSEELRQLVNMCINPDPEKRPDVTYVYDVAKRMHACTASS
UniProt Q14680, whole entry: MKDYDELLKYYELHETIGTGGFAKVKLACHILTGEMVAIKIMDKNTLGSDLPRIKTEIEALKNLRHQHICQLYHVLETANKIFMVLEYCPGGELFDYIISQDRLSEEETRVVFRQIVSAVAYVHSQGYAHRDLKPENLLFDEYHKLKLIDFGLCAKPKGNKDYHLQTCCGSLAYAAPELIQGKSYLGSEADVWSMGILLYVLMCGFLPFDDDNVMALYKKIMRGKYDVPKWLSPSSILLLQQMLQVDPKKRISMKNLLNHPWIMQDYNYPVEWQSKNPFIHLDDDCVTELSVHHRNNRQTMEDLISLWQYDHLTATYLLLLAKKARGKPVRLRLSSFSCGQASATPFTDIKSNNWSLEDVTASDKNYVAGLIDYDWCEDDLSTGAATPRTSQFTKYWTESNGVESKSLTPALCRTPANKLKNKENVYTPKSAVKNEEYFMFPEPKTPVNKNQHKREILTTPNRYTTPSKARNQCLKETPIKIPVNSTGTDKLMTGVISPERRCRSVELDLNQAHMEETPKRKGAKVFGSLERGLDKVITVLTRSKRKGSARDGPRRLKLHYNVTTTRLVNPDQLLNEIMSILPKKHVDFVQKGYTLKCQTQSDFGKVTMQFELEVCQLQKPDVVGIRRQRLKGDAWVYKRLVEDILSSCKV
UniProt P00519, whole entry: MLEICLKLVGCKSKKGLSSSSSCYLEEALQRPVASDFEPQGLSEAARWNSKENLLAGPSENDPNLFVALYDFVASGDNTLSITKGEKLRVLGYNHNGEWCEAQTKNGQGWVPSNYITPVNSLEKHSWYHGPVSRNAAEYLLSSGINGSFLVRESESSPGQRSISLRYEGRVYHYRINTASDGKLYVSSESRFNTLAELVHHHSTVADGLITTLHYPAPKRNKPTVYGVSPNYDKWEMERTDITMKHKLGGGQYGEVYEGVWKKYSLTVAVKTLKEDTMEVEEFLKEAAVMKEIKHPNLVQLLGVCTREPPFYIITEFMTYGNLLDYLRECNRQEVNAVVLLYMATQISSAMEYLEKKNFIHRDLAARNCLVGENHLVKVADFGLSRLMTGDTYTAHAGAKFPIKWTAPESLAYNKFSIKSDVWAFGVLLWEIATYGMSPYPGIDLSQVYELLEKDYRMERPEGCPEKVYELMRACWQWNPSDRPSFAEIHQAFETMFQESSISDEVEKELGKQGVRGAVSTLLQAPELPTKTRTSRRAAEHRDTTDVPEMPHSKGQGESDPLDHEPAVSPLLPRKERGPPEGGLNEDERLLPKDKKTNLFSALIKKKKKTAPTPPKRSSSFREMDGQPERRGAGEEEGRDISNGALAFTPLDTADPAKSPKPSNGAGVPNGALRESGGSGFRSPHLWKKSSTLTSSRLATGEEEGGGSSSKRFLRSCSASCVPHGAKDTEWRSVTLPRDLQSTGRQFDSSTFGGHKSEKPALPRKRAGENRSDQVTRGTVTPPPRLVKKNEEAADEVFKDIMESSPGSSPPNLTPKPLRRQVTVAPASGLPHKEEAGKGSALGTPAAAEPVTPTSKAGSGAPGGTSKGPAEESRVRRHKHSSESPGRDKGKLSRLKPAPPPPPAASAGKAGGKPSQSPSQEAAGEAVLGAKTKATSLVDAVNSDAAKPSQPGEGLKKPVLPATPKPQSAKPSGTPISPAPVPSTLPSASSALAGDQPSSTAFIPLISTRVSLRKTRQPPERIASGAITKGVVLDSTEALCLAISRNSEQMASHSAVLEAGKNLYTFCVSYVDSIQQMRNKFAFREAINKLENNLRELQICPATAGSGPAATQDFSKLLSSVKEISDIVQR
UniProt O15264, whole entry: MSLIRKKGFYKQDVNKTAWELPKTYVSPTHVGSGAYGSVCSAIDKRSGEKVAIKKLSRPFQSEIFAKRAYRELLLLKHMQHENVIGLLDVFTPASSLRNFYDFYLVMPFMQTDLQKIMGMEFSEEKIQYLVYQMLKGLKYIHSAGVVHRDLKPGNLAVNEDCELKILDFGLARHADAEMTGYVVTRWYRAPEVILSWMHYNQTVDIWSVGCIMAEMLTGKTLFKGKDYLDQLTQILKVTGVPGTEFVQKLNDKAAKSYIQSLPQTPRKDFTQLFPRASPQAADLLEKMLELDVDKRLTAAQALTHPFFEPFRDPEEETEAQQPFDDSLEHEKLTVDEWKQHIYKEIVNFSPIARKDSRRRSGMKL
UniProt Q9Y2H1, whole entry: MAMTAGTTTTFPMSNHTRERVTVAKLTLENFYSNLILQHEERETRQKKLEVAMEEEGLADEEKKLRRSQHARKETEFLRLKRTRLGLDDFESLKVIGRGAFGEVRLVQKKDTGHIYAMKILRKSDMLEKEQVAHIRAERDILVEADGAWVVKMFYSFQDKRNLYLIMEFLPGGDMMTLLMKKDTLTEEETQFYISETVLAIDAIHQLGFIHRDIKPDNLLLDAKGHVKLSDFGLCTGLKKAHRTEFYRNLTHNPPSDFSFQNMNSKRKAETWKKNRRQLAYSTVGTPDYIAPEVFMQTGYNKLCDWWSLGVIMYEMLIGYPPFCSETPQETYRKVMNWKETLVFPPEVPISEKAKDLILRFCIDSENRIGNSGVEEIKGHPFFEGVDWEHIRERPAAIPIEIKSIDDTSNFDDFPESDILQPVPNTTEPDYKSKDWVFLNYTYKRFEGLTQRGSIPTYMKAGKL
UniProt O15164, whole entry: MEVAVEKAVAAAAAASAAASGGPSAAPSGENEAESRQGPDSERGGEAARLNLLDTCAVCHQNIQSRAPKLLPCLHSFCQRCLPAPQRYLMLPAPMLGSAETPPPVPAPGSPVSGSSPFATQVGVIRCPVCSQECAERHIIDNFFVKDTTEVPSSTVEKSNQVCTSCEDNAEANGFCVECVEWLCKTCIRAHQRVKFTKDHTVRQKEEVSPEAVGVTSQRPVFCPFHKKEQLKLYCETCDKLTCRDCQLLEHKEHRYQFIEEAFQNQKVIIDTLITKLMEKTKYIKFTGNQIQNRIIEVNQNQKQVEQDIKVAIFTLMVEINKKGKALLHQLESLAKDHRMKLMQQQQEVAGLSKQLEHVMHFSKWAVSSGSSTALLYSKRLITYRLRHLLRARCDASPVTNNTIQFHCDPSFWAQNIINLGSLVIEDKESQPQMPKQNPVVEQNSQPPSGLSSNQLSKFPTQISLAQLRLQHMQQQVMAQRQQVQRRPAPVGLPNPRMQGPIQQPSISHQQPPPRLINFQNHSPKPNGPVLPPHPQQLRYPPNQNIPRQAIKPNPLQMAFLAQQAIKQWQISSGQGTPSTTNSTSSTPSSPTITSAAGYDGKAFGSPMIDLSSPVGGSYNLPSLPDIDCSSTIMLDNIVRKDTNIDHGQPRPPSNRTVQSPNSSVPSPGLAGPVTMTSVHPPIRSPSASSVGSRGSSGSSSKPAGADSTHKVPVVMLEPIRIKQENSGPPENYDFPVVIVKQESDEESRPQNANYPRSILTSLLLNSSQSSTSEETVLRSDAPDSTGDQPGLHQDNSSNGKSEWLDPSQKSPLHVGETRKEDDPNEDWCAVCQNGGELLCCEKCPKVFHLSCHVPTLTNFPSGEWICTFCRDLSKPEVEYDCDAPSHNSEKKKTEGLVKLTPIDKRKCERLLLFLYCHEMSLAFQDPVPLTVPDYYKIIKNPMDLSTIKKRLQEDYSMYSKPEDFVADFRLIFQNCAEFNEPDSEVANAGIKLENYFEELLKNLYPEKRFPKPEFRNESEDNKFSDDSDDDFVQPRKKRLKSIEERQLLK
UniProt Q13873, 27-1038 limits assumed: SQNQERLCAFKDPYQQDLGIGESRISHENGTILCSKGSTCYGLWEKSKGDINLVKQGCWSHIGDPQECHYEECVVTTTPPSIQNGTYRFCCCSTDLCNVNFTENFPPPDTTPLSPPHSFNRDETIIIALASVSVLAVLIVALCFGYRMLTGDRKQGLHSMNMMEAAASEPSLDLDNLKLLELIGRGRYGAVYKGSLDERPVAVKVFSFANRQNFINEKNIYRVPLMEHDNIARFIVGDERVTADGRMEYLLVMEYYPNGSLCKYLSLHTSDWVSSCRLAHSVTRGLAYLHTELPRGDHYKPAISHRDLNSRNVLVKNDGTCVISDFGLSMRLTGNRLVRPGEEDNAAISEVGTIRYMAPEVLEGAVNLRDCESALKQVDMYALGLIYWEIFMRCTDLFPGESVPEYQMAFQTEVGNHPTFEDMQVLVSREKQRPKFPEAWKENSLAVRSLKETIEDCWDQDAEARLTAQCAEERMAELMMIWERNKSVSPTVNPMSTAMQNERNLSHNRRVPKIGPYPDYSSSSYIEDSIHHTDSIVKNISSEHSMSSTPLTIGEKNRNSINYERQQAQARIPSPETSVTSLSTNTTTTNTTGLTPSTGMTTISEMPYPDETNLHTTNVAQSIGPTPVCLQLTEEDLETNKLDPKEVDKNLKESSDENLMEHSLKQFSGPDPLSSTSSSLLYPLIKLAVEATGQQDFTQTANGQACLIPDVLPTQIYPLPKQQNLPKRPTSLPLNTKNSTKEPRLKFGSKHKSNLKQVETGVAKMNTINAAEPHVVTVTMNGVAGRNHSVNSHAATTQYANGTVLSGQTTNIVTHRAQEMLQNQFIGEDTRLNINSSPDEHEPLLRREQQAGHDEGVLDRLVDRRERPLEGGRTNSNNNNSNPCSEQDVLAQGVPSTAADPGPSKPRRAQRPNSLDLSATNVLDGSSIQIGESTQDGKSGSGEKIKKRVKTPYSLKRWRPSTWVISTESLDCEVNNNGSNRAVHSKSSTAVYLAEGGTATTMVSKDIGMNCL
UniProt Q13188, whole entry: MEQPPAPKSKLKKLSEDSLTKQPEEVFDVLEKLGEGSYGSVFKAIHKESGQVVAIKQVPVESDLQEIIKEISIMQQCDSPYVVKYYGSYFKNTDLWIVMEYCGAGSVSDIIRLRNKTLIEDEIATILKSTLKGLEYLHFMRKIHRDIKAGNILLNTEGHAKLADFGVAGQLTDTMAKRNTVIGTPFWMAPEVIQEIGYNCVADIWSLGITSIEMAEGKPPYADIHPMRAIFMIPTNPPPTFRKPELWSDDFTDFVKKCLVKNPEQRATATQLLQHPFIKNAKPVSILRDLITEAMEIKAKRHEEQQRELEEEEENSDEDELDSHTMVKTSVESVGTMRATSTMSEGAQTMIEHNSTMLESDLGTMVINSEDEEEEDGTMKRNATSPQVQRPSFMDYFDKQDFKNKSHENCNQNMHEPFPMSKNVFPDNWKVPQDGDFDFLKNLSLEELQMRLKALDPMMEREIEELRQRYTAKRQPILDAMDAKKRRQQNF
UniProt Q96NX5, whole entry: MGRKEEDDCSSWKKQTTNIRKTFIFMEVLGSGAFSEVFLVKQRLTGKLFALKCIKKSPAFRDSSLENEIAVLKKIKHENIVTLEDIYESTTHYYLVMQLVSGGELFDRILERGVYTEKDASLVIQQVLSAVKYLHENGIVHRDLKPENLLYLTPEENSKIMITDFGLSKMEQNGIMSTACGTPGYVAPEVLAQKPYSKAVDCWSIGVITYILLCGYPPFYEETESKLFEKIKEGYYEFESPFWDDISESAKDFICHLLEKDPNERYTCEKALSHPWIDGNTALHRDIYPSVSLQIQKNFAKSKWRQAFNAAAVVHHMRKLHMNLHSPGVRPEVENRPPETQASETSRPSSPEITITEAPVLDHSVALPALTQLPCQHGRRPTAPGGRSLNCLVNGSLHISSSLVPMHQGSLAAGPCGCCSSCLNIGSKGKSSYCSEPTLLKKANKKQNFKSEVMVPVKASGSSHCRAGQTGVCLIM
UniProt Q00532, whole entry: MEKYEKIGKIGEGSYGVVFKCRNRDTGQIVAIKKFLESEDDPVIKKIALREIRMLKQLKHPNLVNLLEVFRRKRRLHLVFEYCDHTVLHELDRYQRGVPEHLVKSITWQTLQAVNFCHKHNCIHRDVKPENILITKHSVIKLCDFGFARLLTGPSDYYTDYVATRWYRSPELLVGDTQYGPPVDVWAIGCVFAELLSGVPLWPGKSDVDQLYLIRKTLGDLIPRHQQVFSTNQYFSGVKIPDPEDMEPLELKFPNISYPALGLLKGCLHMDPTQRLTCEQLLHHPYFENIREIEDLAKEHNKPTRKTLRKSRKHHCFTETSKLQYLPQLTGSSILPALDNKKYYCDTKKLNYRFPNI

Legend:
Assay in all cases: DSF 100 kinase selectivity screen;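 also: compound tested at 20 µM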
Type in all cases: binding
[1] = biological target: ~100 representative kinases (Homo sapiens, UniProt P28482); details: protein MAPK1; average of three replicates
[2] = biological target: ~100 representative kinases (Homo sapiens, UniProt Q8TDX7); details: protein NEK7; average of three replicates
[3] = biological target: ~100 representative kinases (Homo sapiens, UniProt Q14680); details: protein MELK; average of three replicates
[4] = biological target: ~100 representative kinases (Homo sapiens, UniProt P45984); details: protein MAPK9; average of three replicates
[5] = biological target: ~100 representative kinases (Homo sapiens, UniProt P12931); details: Protein SRC; DSF; average of three replicates
[6] = biological target: ~100 representative kinases (Homo sapiens, UniProt P54762); details: Protein EPHB1; average of three replicates
[7] = biological target: ~100 representative kinases (Homo sapiens, UniProt P00519); details: Protein ABL1; average of three replicates
[8] = biological target: ~100 representative kinases (Homo sapiens, UniProt P22830); details: protein FECH; average of three replicates
[9] = biological target: ~100 representative kinases (Homo sapiens, UniProt O15264); details: protein MAPK13; average of three replicates
[10] = biological target: ~100 representative kinases (Homo sapiens, UniProt Q13557); details: Protein CAMK2D; average of three replicates
[11] = biological target: ~100 representative kinases (Homo sapiens, UniProt P33981); details: Protein TTK; DSF; average of three replicates
[12] = biological target: ~100 representative kinases (Homo sapiens, UniProt P45983); details: protein MAPK8; average of three replicates
[13] = biological target: ~100 representative kinases (Homo sapiens, UniProt Q9Y2H1); details: Protein STK38L; DSF; average of three replicates
[14] = biological target: ~100 representative kinases (Homo sapiens, UniProt Q13627); details: Protein DYRK1A; average of three replicates
[15] = biological target: ~100 representative kinases (Homo sapiens, UniProt O96013); details: protein PAK4; average of three replicates
[16] = biological target: ~100 representative kinases (Homo sapiens, UniProt O15164); details: Protein TIF1; DSF; average of three replicates
[17] = biological target: ~100 representative kinases (Homo sapiens, UniProt Q13873); details: Protein BMPR2; average of three replicates
[18] = biological target: ~100 representative kinases (Homo sapiens, UniProt Q13043); details: Protein STK4; DSF; average of three replicates
[19] = biological target: ~100 representative kinases (Homo sapiens, UniProt Q13188); details: Protein STK3; DSF; average of three replicates
[20] = biological target: ~100 representative kinases (Homo sapiens, UniProt O96017); details: Protein CHEK2; average of three replicates
[21] = biological target: ~100 representative kinases (Homo sapiens, UniProt Q96NX5); details: Protein CAMK1G; average of three replicates
[22] = biological target: ~100 representative kinases (Homo sapiens, UniProt Q9Y243); details: Protein AKT3; average of three replicates
[23] = biological target: ~100 representative kinases (Homo sapiens, UniProt P49759); details: Protein CLK1; average of three replicates
[24] = biological target: ~100 representative kinases (Homo sapiens, UniProt Q00532); details: Protein CDKL1; average of three replicates
[25] = biological target: ~100 representative kinases (Homo sapiens, UniProt Q00536); details: protein PCTK1; average of three replicates
[26] = biological target: ~100 representative kinases (Homo sapiens, UniProt Q13554); details: Protein CAMK2B; average of three replicates
[27] = biological target: ~100 representative kinases (Homo sapiens, UniProt P34947); details: protein GPRK5; average of three replicates
[28] = biological target: ~100 representative kinases (Homo sapiens, UniProt P07332); details: protein FESA; average of three replicates
[29] = biological target: ~100 representative kinases (Homo sapiens, UniProt Q86V86); details: protein PIM3; average of three replicates
[30] = biological target: ~100 representative kinases (Homo sapiens, UniProt Q15418); details: Protein RPS6KA1; DSF; average of three replicates
[31] = biological target: ~100 representative kinases (Homo sapiens, UniProt P51813); details: Protein BMX; average of three replicates
[32] = biological target: ~100 representative kinases (Homo sapiens, UniProt O14936); details: Protein CASK; average of three replicates

Work on `Cc1ccc(C(=O)Nc2ccc(CN3CCN(C)CC3)c(C(F)(F)F)c2)cc1C#Cc1ccc2cn[nH]c2c1` yielded a dTm [1] of -1.88 K, a dTm [2] of -1.99 K and a dTm [3] of 8.82 K. It also gave a dTm [4] of 8.80 K, a dTm [5] of -0.06 K and a dTm [6] of 5.82 K. The dTm [7] was 19.53 K, the dTm [8] was -5.80 K and the dTm [9] was 5.31 K. The dTm [10] was 0.22 K, the dTm [11] was -2.93 K and the dTm [12] was 2.23 K. The dTm [13] was -2.84 K, the dTm [14] was -5.87 K and the dTm [15] was -3.32 K. The dTm [16] was -4.10 K, the dTm [17] was 4.10 K and the dTm [18] was 4.38 K. It also gave a dTm [19] of 5.01 K, a dTm [20] of 18.89 K and a dTm [21] of 0.22 K. For the same compound, the dTm [22] was 0.29 K, the dTm [23] was 2.76 K and the dTm [24] was 2.79 K. The dTm [25] was 4.19 K, the dTm [26] was -2.20 K and the dTm [27] was -5.79 K. The dTm [28] was -4.59 K, the dTm [29] was -4.28 K and the dTm [30] was 5.81 K. For the same compound, the dTm [31] was 0.37 K and the dTm [32] was -0.51 K.
